Laboratory results taken from patent publication US20060251705A1, “Delivery of tigecycline in the presence of heparin” (Wyeth, priority 2005, published 2006).

Assay: Simulated Y-site compatibility: pH by potentiometric meter
Type: physicochemical
Experimental: To “simulate” the Y-site, solutions of both tigecycline and heparin are mixed in a 1:1 ratio, and the compatibility of the common solution is evaluated for Appearance and Description (i.e. color, visible particulates or turbidity), subvisible particulates by light obscuration (i.e. HIAC), and pH over a four hour, room temperature period. This time period has become standard when performing these “simulated Y-site” studies, although the actual residence time for the two solutions in the administration set may not exceed eight minutes prior to entering the venous system. […]
The acceptance criteria of “no incompatibility indicating change” over the four hour evaluation period is being applied to the Appearance and Description assay as well as the HIAC subvisible particulate assay. […] In addition to the Appearance and Description and HIAC testing, the pH of the solutions are monitored “for information only.” Before mixing of the two test solutions together; Appearance and Description, HIAC subvisible particulate testing, and pH are determined on each as controls.
Testing of Controls • 1. Approximately 30 ml of the tigecycline and of the heparin solution are transferred to separate beakers and evaluated for Appearance and Description, subvisible particulates by HIAC and pH testing before the two test articles are mixed together. • 2. […]

## CN(C)c1cc(NC(=O)CNC(C)(C)C)c(O)c2c1C[C@H]1C[C@H]3[C@H](N(C)C)C(O)=C(C(N)=O)C(=O)[C@@]3(O)C(O)=C1C2=O [Tigecycline, (4S,4aS,5aR,12aS)-9-[2-(tert-butylamino)acetamido]-4,7-bis(dimethylamino)-1,4,4a,5,5a,6,11,12a-octahydro-3,10,12,12a-tetrahydroxy-1,11-dioxo-2-naphthacenecarboxamide]
Table 1: Tigecycline 1 mg/mL in NS, Heparin 10 Units/ml in NS, each solution before mixing, 0 Hours
  pH: 7.78
Table 6: Tigecycline and Chlorpromazine solutions, each before mixing, 0 hours
  pH: 7.74
